From ChEMBL document CHEMBL1926659, “CK2α and CK2α' subunits differ in their sensitivity to 4,5,6,7-tetrabromo- and 4,5,6,7-tetraiodo-1H-benzimidazole derivatives” (Eur J Med Chem, 2012)

By UniProt entry, the sequences of proteins in these tests, tags left out.
UniProt P68400, whole entry: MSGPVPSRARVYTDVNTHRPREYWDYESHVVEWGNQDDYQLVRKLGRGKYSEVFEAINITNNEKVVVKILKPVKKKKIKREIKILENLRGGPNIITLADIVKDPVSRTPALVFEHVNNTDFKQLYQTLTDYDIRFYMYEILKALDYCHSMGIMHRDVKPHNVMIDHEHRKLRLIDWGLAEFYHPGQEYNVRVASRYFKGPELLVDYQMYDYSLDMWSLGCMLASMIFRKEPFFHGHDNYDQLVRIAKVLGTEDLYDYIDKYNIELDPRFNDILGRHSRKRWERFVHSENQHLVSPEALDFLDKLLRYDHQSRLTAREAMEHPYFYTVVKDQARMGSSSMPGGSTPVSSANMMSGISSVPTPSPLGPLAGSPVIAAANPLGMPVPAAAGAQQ
UniProt P19784, whole entry: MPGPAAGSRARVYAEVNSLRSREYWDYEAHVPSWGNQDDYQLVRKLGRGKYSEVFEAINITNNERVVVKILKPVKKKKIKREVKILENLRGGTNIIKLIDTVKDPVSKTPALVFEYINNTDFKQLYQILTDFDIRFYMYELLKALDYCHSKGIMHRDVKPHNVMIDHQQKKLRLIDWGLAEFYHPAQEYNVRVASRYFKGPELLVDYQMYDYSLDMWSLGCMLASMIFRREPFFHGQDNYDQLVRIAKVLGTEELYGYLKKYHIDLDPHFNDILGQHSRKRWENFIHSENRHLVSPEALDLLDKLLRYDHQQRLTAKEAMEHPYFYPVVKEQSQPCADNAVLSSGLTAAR

Legend:
[1] = target: T1, Casein kinase II subunit alpha (Homo sapiens, UniProt P68400); experiment: Inhibition of human CK2 alpha catalytic subunit expressed in Escherichia coli BL21 (DE3) assessed as [32P]gamma-ATP incorporation into RRRADDSDDDDD substrate after 15 mins by scintillation counting
[2] = target: T2, Casein kinase II subunit alpha' (Homo sapiens, UniProt P19784); experiment: Inhibition of human CK2 alpha' catalytic subunit expressed in Escherichia coli […] (DE3) assessed as [33P]gamma-ATP incorporation into RRRADDSDDDDD substrate after 15 mins by scintillation counting
[3] = target: T2, Casein kinase II subunit alpha'; experiment: Inhibition of human CK2 alpha' catalytic subunit expressed in Escherichia coli BL21 (DE3) assessed as [33P]gamma-ATP incorporation into P2B substrate after 15 mins by scintillation counting
[4] = target: T1, Casein kinase II subunit alpha; experiment: Inhibition of human CK2 alpha catalytic subunit expressed in Escherichia coli BL21 (DE3) assessed as [32P]gamma-ATP incorporation into P2B substrate after 15 mins by scintillation counting

Ki [1]: 139 nM
Ki [2]: 133 nM
Ki [3]: 112 nM
Ki [4]: 97 nM
SMILES: CN(C)c1nc2c(Br)c(Br)c(Br)c(Br)c2[nH]1
